# Values of other authors in patent US20240066037A1 (priority 2020, published 2024).
# Protein sequences, listed by entry. Tags and fused reporters are not part of them. Residues count along the entry.
# UniProt P43235, 115-329: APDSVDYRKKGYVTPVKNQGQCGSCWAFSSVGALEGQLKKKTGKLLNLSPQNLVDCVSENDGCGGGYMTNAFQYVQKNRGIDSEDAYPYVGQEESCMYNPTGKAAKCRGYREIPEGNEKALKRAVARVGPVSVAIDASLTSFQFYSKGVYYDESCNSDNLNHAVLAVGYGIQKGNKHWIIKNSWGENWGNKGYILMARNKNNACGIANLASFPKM
# Target: Cat K (Homo sapiens, UniProt P43235)
# Details: cited from earlier work
smiles,measurement,value
"CC(C)C[C@H](NC(=O)c1cc2ccccc2o1)C(=O)N[C@H]1CC[C@@H](C)N(S(=O)(=O)c2ccccn2)CC1=O [relacatib, N-((2S)-4-methyl-1-(((4S,7R)-7-methyl-3-oxo-1-(pyridin-2-ylsulfonyl)azepan-4-yl)amino)-1-oxopentan-2-yl)benzofuran-2-carboxamide]",Ki,0.04 nM
